Patent US8372441B2, “Materials and methods for preparation of alkaline earth ferrates from alkaline earth oxides, peroxides, and nitrates” (Biolife, LLC, priority 2007, dated 2013)

Experiment: solubility in water or saline solution
Type: physicochemical
Conditions: for strontium ferrate water or saline solution

Substance: strontium hydroxide
- solubility in water: slightly soluble
